{"source": "patent US10561143B2", "about": "“Fungicidal composition having synergistic effect” (JIANGSU HUIFENG AGROCHEMICAL CO., LTD., priority 2013, dated 2020)", "key": {"rust pathogens of wheat [1]": {"tested_on": "rust pathogens of wheat", "test": "whole plant or invertebrate", "details": "Triticum aestivum"}, "rust pathogens of wheat [2]": {"tested_on": "rust pathogens of wheat"}, "[3]": {"details": "Table 18, series with picoxystrobin"}, "[4]": {"details": "Table 19, series with fluopicolide"}}, "note": "Like-named read-outs stand apart in the source and are kept apart here.", "data": [{"molecule": "OC(Cc1ccccc1Cl)(Cn1nc[nH]c1=S)C1(Cl)CC1", "note": "(stereo not shown) [Prothioconazole]", "values": [{"measurement": "EC50", "setting": "rust pathogens of wheat [1]", "value": 7.68, "unit": "µg/mL"}]}, {"molecule": "Cl.O=c1[nH]sc2ccccc12", "note": "[Benziothiazolinone hydrochloride]", "values": [{"measurement": "EC50", "setting": "rust pathogens of wheat [2]; Table 16, series with fluazinam", "value": 7.68, "unit": "µg/mL"}]}, {"molecule": "C[C@@]1(c2ccc(Oc3ccccc3)cc2)OC(=O)N(Nc2ccccc2)C1=O", "note": "(racemic) [Famoxadone]", "values": [{"measurement": "EC50", "setting": "rust pathogens of wheat [1]", "value": 7.96, "unit": "µg/mL"}]}, {"molecule": "O=[N+]([O-])c1cc(C(F)(F)F)c(Cl)c([N+](=O)[O-])c1Nc1ncc(C(F)(F)F)cc1Cl", "note": "[Fluazinam]", "values": [{"measurement": "EC50", "setting": "rust pathogens of wheat [1]", "value": 8.15, "unit": "µg/mL"}]}, {"molecule": "CO/C=C(/C(=O)OC)c1ccccc1COc1cccc(C(F)(F)F)n1", "note": "[Picoxystrobin]", "values": [{"measurement": "EC50", "setting": "rust pathogens of wheat [2]; [3]", "value": 8.26, "unit": "µg/mL"}]}, {"molecule": "O=c1[nH]sc2ccccc12", "note": "[Benziothiazolinone]", "values": [{"measurement": "EC50", "setting": "rust pathogens of wheat [2]; Table 17, series with prothioconazole", "value": 7.92, "unit": "µg/mL"}, {"measurement": "EC50", "setting": "rust pathogens of wheat [2]; [3]", "value": 7.51, "unit": "µg/mL"}, {"measurement": "EC50", "setting": "rust pathogens of wheat [2]; [4]", "value": 7.93, "unit": "µg/mL"}, {"measurement": "EC50", "setting": "rust pathogens of wheat [2]; Table 20, series with famoxadone", "value": 7.51, "unit": "µg/mL"}]}, {"molecule": "O=C(NCc1ncc(C(F)(F)F)cc1Cl)c1c(Cl)cccc1Cl", "note": "[Fluopicolide]", "values": [{"measurement": "EC50", "setting": "rust pathogens of wheat [2]; [4]", "value": 7.69, "unit": "µg/mL"}]}]}
